Earlier results in PMC3764403, “Structure-Based Dissection of the Natural Product Cyclopentapeptide Chitinase Inhibitor Argifin” (Chemistry & Biology, 2008).

Biological target: T1, human chitotriosidase (hCHT) (Homo sapiens, UniProt Q13231)
T1 sequence (Q13231 22-466): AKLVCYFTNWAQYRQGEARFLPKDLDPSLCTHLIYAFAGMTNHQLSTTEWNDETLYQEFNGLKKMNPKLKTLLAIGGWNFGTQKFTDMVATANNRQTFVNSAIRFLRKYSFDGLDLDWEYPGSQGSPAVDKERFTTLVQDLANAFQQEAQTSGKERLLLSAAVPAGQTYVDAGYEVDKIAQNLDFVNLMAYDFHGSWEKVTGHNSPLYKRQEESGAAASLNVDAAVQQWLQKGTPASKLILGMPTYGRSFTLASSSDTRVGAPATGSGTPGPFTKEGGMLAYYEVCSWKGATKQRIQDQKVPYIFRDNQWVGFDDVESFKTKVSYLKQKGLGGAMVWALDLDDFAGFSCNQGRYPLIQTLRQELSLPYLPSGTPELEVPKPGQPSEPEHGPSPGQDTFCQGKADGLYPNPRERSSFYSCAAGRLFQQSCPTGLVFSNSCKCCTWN
Settings: Table 1, argifin value reported previously, ref Rao et al., 2005b, Dixon et al.; cited from earlier work

**Q.** Which IC50 does the source give for argifin (RFDDA) here?
**A.** 4.5 µM
